Data from ChEMBL document CHEMBL5316282, “Small-Molecule Cyanamide Pan-TEAD·YAP1 Covalent Antagonists” (J Med Chem, 2023).

Protein sequences, listed by entry. Tags and fused reporters are not part of them.
UniProt P28347, whole entry: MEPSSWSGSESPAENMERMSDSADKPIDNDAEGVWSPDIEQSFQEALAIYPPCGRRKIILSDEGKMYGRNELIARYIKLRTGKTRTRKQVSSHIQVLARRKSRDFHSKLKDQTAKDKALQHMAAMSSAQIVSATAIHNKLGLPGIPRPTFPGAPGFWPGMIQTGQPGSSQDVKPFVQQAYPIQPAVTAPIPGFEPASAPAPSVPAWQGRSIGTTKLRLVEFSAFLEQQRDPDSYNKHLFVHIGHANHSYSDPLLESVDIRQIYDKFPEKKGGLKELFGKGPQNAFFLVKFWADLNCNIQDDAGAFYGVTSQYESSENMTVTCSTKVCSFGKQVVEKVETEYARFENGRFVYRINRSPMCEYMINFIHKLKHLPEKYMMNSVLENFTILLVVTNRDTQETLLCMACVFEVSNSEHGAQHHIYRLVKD
UniProt Q15562, whole entry: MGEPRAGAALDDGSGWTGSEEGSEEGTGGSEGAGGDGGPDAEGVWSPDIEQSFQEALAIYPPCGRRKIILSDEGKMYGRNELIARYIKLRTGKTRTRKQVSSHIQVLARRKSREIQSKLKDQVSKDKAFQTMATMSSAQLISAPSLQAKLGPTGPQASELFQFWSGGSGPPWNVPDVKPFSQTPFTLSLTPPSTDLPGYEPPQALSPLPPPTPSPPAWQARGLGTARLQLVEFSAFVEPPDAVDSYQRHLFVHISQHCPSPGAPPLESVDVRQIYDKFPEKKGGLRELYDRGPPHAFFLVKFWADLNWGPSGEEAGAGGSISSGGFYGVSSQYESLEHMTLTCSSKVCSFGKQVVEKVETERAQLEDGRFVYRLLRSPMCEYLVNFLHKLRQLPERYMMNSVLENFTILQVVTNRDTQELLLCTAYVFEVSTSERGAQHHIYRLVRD
UniProt Q99594, whole entry: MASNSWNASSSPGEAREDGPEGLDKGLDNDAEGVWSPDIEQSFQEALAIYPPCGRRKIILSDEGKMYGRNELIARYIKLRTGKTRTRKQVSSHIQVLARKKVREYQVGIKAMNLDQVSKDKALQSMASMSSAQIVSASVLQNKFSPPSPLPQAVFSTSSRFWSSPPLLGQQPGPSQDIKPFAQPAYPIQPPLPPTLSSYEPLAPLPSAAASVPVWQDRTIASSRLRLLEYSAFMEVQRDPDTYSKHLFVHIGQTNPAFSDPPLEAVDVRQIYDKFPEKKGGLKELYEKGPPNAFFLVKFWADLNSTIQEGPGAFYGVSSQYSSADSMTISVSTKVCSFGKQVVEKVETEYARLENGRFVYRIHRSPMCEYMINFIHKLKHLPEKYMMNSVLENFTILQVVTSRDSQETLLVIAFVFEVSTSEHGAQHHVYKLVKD
UniProt Q15561, whole entry: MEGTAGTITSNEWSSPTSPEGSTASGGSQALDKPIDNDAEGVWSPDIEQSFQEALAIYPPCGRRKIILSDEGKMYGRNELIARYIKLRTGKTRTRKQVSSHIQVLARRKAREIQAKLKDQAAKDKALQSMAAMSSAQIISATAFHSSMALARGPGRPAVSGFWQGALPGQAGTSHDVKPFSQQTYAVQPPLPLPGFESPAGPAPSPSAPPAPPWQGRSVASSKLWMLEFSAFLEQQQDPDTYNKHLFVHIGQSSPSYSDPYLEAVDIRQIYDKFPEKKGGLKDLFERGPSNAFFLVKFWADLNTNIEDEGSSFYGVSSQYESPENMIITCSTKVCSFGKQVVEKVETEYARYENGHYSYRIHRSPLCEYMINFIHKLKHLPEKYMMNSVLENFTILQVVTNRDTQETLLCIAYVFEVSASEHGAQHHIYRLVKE

Columns and labels:
[1] = target: T1, Transcriptional enhancer factor TEF-1 (Homo sapiens, UniProt P28347); experiment: Binding affinity to human TEAD1 (209 to 426 residues) expressed in Escherichia coli BL21 (DE3) cells assessed as binding constant (K1) incubated for 24 hrs by electrospray ionization mass spectrometry
[2] = target: T2, Transcriptional enhancer factor TEF-4 (Homo sapiens, UniProt Q15562); experiment: Binding affinity to human TEAD2 (217 to 447 residues) expressed in Escherichia coli BL21 (DE3) cells assessed as binding constant (K1) incubated for 24 hrs by electrospray ionization mass spectrometry
[3] = target: T3, Transcriptional enhancer factor TEF-5 (Homo sapiens, UniProt Q99594); experiment: Binding affinity to human TEAD3 (210 to 427 residues) expressed in Escherichia coli BL21 (DE3) cells assessed as binding constant (K1) incubated for 24 hrs by electrospray ionization mass spectrometry
[4] = target: T4, Transcriptional enhancer factor TEF-3 (Homo sapiens, UniProt Q15561); experiment: Binding affinity to GST-tagged human TEAD4 (217 to 434 residues) expressed in Escherichia coli BL21 (DE3) cells assessed as binding constant (K1) incubated for 24 hrs by electrospray ionization mass spectrometry
[5] = target: T1, Transcriptional enhancer factor TEF-1; experiment: Irreversible covalent inhibition of human TEAD1 (209 to 426 residues) expressed in Escherichia coli BL21 (DE3) cells assessed as second order rate constant Kinact/K1 at 0.78 to 100 uM incubated for 24 hrs by electrospray ionization mass spectrometry; conditions: dose 0.78-100 µM
[6] = target: T2, Transcriptional enhancer factor TEF-4; experiment: Irreversible covalent inhibition of human TEAD2 (217 to 447 residues) expressed in Escherichia coli BL21 (DE3) cells assessed as second order rate constant Kinact/K1 at 0.78 to 100 uM incubated for 24 hrs by electrospray ionization mass spectrometry; conditions: dose 0.78-100 µM
[7] = target: T3, Transcriptional enhancer factor TEF-5; experiment: Irreversible covalent inhibition of human TEAD3 (210 to 427 residues) expressed in Escherichia coli BL21 (DE3) cells assessed as second order rate constant Kinact/K1 at 0.78 to 100 uM incubated for 24 hrs by electrospray ionization mass spectrometry; conditions: dose 0.78-100 µM
[8] = target: T4, Transcriptional enhancer factor TEF-3; experiment: Irreversible covalent inhibition of GST-tagged human TEAD4 (217 to 434 residues) expressed in Escherichia coli BL21 (DE3) cells assessed as second order rate constant Kinact/K1 at 0.78 to 100 uM incubated for 24 hrs by electrospray ionization mass spectrometry; conditions: dose 0.78-100 µM
[9] = target: T3, Transcriptional enhancer factor TEF-5; experiment: Inhibition of TEAD3 (unknown origin) transfected in human HEK293 cells co-transfected with renilla plasmid assessed as maximum inhibition of transcriptional activity at 10 uM incubated for 24 hrs by dual Glo-luciferase reporter assay relative to control; type: cell-based
[10] = target: T3, Transcriptional enhancer factor TEF-5; experiment: Inhibition of TEAD3 (unknown origin) transfected in human HEK293 cells co-transfected with renilla plasmid assessed as maximum inhibition of transcriptional activity at 0.1 to 10 uM incubated for 24 hrs by dual Glo-luciferase reporter assay relative to control; type: cell-based; conditions: dose 0.1-10 µM

Row | K [1] [µM] | K [2] | K [3] | K [4] | K [5] | K [6] [M⁻¹ s⁻¹] | K [7] [M⁻¹ s⁻¹] | K [8] [M⁻¹ s⁻¹] | inhibition [9] | Imax [10] [%] | SMILES
1 | 21.4 | inactive | 36.9 µM | inactive | 148 M⁻¹ s⁻¹ | 197 | 165 | 400 | Active | – | N#CN1Cc2ccc(F)c(Nc3cccc(C(F)(F)F)c3)c2C1
2 | 3.3 | 24.8 µM | 18 µM | 8.2 µM | 3.5 M⁻¹ s⁻¹ | 142 | 29.4 | 189 | 50% | – | COc1ccc2c(c1Nc1cccc(C(F)(F)F)c1)CN(C#N)C2
3 | 27.6 | inactive | 35.1 µM | 15.9 µM | 57.4 M⁻¹ s⁻¹ | 158 | 68.9 | 189 | 80% | 61.5 | N#CN1Cc2cccc(Nc3cccc(C(F)(F)F)c3)c2C1
4 | 10.9 | 53.3 µM | 55 µM | 29.7 µM | 14.4 M⁻¹ s⁻¹ | 45.3 | 7.9 | 3.9 | – | – | N#CN1Cc2cccc(Nc3ccccc3C(F)(F)F)c2C1
5 | 38 | 95 µM | 183 µM | 231 µM | 0.3 M⁻¹ s⁻¹ | 1 | 0.2 | 0.1 | – | 38.2 | N#CN1CC2CCCC(Nc3cccc(C(F)(F)F)c3)C2C1 (stereo not given)
6 | > 100 | inactive | inactive | inactive | inactive | 3.3 | 1.7 | 1.1 | – | – | N#CN1CC2CCCC(Nc3ccc(C(F)(F)F)cc3)C2C1 (stereo not given)
7 | – | 140 µM | – | 167 µM | – | 0.9 | – | 0.1 | – | – | N#CN1CC2CCCC(Nc3ccccc3C(F)(F)F)C2C1 (stereo not given)
8 | 4.4 | 11.8 µM | 9.4 µM | 4.7 µM | 538 M⁻¹ s⁻¹ | 141 | 241 | 8.2 | – | – | N#CN1Cc2cccc(Nc3ccc(C(F)(F)F)cc3)c2C1

Activity calls are given as the source filed them. No cut-off for these calls is given here.
